Each molecule was assayed against small intestinal muscle (muscarinic receptor) (Cavia porcellus, UniProt H0W1Z3) (assay: Functional in vitro study on small intestinal muscle (KB)). Details: Table 5; guinea pig small intestinal muscle.

The chains behind the UniProt entries cited, without tags or fusion partners. Residues count along the entry.
UniProt H0W1Z3, 1-590: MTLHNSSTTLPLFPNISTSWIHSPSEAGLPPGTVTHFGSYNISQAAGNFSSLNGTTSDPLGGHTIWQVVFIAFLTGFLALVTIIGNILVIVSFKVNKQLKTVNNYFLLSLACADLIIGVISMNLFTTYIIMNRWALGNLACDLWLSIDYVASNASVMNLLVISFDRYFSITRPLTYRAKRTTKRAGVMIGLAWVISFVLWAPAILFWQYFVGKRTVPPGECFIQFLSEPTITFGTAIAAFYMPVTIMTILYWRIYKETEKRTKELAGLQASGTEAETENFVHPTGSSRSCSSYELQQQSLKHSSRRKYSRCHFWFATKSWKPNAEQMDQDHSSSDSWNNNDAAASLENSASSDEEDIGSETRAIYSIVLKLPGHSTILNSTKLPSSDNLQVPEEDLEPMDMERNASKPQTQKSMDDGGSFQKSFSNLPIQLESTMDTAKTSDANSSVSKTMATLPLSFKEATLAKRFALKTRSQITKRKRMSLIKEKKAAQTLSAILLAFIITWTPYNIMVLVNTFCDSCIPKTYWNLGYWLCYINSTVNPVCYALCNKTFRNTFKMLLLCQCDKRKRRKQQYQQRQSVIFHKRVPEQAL

Row | Structure (SMILES) | Kb [µM]
1 | NC(=O)C(c1ccccc1)(c1ccccc1)[C@@H]1CCN(CCc2ccc3c(c2)CCO3)C1 | 0.01
2 | CC(C)N(CCOC(=O)C1(c2ccccc2)CCCCC1)C(C)C | 0.00041
3 | CC(C)N(CCOC(=O)C1(c2ccccc2)CCCC1)C(C)C | 0.0039

What follows are molecules tested against urinary bladder smooth muscle (muscarinic receptor) (Cavia porcellus, UniProt H0W1Z3) (assay: Functional in vitro study: antagonism of carbachol-induced contraction of urinary bladder smooth muscle strips (KB)). Details: Table 1; guinea pig urinary bladder, carbachol agonist, 60 min incubation.

Row | Structure (SMILES) | Kb [µM]
4 | COC[C@@H]1C[C@@]1(C(=O)OCCN(C(C)C)C(C)C)c1ccccc1 (relative stereo) | 0.026
5 | COC[C@@H]1C[C@]1(C(=O)OCCN(C(C)C)C(C)C)c1ccccc1 (relative stereo) | 0.018
6 | CC(C)N(CCOC(=O)[C@]1(c2ccccc2)C[C@H]1CO)C(C)C (relative stereo) | 0.39
7 | CC(C)N(CCOC(=O)[C@]1(c2ccccc2)C[C@H]1COCc1ccccc1)C(C)C (relative stereo) | 0.26

Same assay, conditions: Table 2; guinea pig urinary bladder, carbachol agonist, 60 min incubation

Row | Structure (SMILES) | Kb [µM]
8 | O=C(OCC1CN2CCC1CC2)C1(c2ccccc2)CCC1 (centres unmarked) | 0.015
9 | CC(C)N(CCOC(=O)C1(c2ccc3ccccc3c2)CCC1)C(C)C | > 0.5
10 | CCC1(CC)CC(C(=O)OCCN(C(C)C)C(C)C)(c2ccccc2)C1 | 0.019
11 | CC(C)N(CCOC(=O)C1(c2ccc([N+](=O)[O-])cc2)CCC1)C(C)C | 0.34
12 | CC(C)N(CCOC(=O)C1(c2cccc([N+](=O)[O-])c2)CCC1)C(C)C | 0.61
13 | CCN(CC)CCCOC(=O)C1(c2ccccc2)CCC1 | 0.037
14 | CC(C)N(CCOC(=O)[C@]1(c2ccccc2)CC[C@H]1C)C(C)C (relative stereo) | 0.027
15 | O=C(OCCN1CCCC1)C1(c2ccccc2)CCC1 | 0.13
16 | CC(C)N(CCOC(=O)C1(c2cccc3ccccc23)CCC1)C(C)C | 0.022
17 | CN1CCCC(COC(=O)C2(c3ccccc3)CCC2)C1 (centres unmarked) | 0.011
18 | CN1[C@@H]2CC[C@H]1C[C@@H](OC(=O)C1(c3ccccc3)CCC1)C2 (relative stereo) | 0.0026
19 | CC(C)N(CCOC(=O)[C@@]1(c2ccccc2)CC[C@H]1C)C(C)C (relative stereo) | 0.029
20 | CN1CCC(OC(=O)C2(c3ccccc3)CCC2)CC1 | 0.0017
21 | CCN(CC)CCOC(=O)C1(c2ccccc2)CC(CC)(CC)C1 | 0.0018
22 | CC(C)N(CCOC(=O)C1(c2ccc([N+](=O)[O-])cc2[N+](=O)[O-])CCC1)C(C)C | 0.13
23 | CC(C)N(CCOC(=O)C1(c2ccc3c(c2)OCO3)CCC1)C(C)C | 0.04
24 | CC(C)N(CCOC(=O)C1(c2ccccc2)CC(C)(C)C1)C(C)C | 0.0016
25 | CC(C)N(CCOC(=O)C1(c2ccccc2)CCC1)C(C)C | 0.022
26 | C=C1CC(C(=O)OCCN(C(C)C)C(C)C)(c2ccccc2)C1 | 0.0034
27 | CC(C)N(CCOC(=O)C1(c2ccsc2)CCC1)C(C)C | 0.028
28 | CC(C)N(CCOC(=O)C1(c2ccccc2)CC(=O)C1)C(C)C | 0.124
29 | CC(C)N(CCOC(=O)C1(c2ccccc2)CC2(CCC2)C1)C(C)C | 0.0038
30 | CCN(CC)CCOC(=O)C1(c2ccccc2)CC(C)(C)C1 | 0.0034
31 | CC(C)N(CCOC(=O)C1(c2cccc(N)c2)CCC1)C(C)C | 0.035
32 | CN1CCCC(COC(=O)C2(c3ccccc3)CC(C)(C)C2)C1 (centres unmarked) | 0.0019
33 | CN1CCCCC1COC(=O)C1(c2ccccc2)CCC1 (centres unmarked) | 0.014
34 | CCN(CC)CCOC(=O)C1(c2ccccc2)CCC1 | 0.014

Same assay, conditions: Table 3; guinea pig urinary bladder, carbachol agonist, 60 min incubation

Row | Structure (SMILES) | Kb [µM]
35 | CC(C)N(CCOC(=O)C1(c2cccs2)CCCC1)C(C)C | 0.015
36 | CCN(CC)CCOC(=O)C1(c2cccs2)CCCC1 | 0.015
37 | CN1CCC(OC(=O)C2(c3cccs3)CCCC2)CC1 | 0.02
38 | CN1CCCC(COC(=O)C2(c3cccs3)CCCC2)C1 (centres unmarked) | 0.02
39 | CC(C)N(CCOC(=O)C1(c2ccccc2)CCCC1)C(C)C | 0.0057
40 | CCN(CC)CCOC(=O)C1(c2ccsc2)CCCC1 | 0.015
41 | CC(C)N(CCOC(=O)C1(c2ccsc2)CCCC1)C(C)C | 0.024
42 | CN1[C@@H]2CC[C@H]1CC(OC(=O)C1(c3cccs3)CCCC1)C2 (some centres unmarked) | 0.012

Same assay, conditions: Table 4; guinea pig urinary bladder, carbachol agonist, 60 min incubation

Row | Structure (SMILES) | Kb [µM]
43 | CC(C)N(CCOC(=O)C1(c2ccccc2)CCC(C)(C)CC1)C(C)C | 0.05
44 | COC1CCC(C(=O)OCCN(C(C)C)C(C)C)(c2ccccc2)CC1 (centres unmarked) | 0.029
45 | CC(C)N(CCOC(=O)C1(c2ccccc2)CCCCC1)C(C)C | 0.021
46 | CC(C)N(CCOC(=O)C1(c2ccccc2)CCC2(CC1)OCCO2)C(C)C | 0.005
47 | CC(C)N(CCOC(=O)C1(c2ccccc2)CCC(=O)CC1)C(C)C | 0.234

These molecules were tested on muscarinic receptor (assay: Validation of filtration against centrifugation receptor binding assay). Details: within the experimental error.

Row | Structure (SMILES) | Ki-values, filtration assay compared with centrifugation assay
48 | CCN(CC)CC1CCCCN1CC(=O)N1c2ccccc2C(=O)Nc2cccnc21 (centres unmarked) | almost identical
49 | C[N+]1(C)CCC(OC(=O)C(c2ccccc2)c2ccccc2)CC1 | almost identical
50 | CN1[C@@H]2CC[C@H]1C[C@@H](OC(=O)C(CO)c1ccccc1)C2 (some centres unmarked) | almost identical

From patent US6124354A, “Arylcycloalkane carboxylic esters, their use, pharmaceutical compositions and preparation” (dated 2000)
